Reference: patent US7259266B2, “Benzopyran compounds useful for treating inflammatory conditions” (Pharmacia Corporation, priority 2003, dated 2007)
Several values for one entry are separate records, joined by “and”; a condition that tells them apart may be missing. Equal values may be shown once.

Amino acid sequences for entries named in this document (tags omitted). Residues count along the entry.
UniProt P23219, 24-599 limits assumed: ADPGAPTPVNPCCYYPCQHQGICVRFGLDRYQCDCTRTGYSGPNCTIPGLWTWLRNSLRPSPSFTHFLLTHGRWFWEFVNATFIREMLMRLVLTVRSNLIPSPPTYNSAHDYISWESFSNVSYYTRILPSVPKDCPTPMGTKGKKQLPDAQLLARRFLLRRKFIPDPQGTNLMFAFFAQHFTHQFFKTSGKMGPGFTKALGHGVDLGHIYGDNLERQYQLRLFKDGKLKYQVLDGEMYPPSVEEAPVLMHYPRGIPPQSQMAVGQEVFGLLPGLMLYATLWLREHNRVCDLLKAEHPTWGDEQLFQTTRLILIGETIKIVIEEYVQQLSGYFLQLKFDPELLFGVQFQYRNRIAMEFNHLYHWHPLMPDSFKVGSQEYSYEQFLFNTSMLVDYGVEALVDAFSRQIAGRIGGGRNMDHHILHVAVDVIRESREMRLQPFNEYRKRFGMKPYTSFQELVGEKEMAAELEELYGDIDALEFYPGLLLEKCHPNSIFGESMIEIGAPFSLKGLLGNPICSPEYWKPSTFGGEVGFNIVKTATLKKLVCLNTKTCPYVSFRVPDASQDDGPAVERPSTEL
UniProt P35354, 18-604 limits assumed: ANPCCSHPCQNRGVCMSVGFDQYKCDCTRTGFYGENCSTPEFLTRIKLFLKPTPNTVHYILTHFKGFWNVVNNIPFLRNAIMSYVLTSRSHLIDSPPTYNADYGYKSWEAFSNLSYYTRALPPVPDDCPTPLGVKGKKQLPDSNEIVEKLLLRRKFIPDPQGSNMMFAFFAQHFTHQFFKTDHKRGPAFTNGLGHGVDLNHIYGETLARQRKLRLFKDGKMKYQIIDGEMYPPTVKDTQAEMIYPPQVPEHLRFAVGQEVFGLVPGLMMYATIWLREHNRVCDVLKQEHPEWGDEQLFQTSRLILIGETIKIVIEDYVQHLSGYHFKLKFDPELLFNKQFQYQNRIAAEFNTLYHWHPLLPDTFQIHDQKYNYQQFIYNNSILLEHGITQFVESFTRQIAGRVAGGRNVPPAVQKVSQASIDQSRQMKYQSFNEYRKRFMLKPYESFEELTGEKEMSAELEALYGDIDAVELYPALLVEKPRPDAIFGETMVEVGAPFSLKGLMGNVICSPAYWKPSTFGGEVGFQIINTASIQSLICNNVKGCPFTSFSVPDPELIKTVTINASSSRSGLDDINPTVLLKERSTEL

Legend:
COX-1 [1] = target: T1, COX-1 (Homo sapiens, UniProt P23219); experiment: Assay for COX-1 activity (PGE2 formed, ELISA); conditions: read-out: hCox-1 IC50
COX-2 [2] = target: T2, COX-2 (Homo sapiens, UniProt P35354); experiment: Assay for COX-2 activity (PGE2 formed, ELISA); type: biochemical, human or murine; conditions: read-out: hCox-2 IC50
COX-2 [3] = target: T2, COX-2; experiment: Modified assay for COX-2 activity (PGE2 formed, ELISA); type: biochemical, human or murine
COX-1 [4] = target: T1, COX-1; experiment: Modified assay for COX-1 activity (PGE2 formed, ELISA); conditions: read-out: hCox-1 Modified IC50, pre-incubated 10 minutes at 25° C., reaction stopped after two minutes, pH 7.5
[5] = read-out: hCox-2 Modified IC50, human COX-2
[6] = recombinant hCox-1, compounds pre-incubated 10-20 minutes, reaction stopped after ten minutes, pH 8.0
[7] = read-out: hCox-2 Modified IC50, pre-incubated 10 minutes at 25° C., reaction stopped after two minutes, pH 7.5
[8] = recombinant hCox-2, compounds pre-incubated 10-20 minutes, reaction stopped after ten minutes, pH 8.0

IC50 (COX-1 [1]; human COX-1, standard assay)	IC50 (COX-2 [2]; human COX-2, standard assay)	IC50 (COX-2 [3]; [5])	IC50 (COX-1 [1]; [6])	IC50 (COX-2 [3]; [7])	IC50 (COX-1 [4])	IC50 (COX-2 [2]; [8])	SMILES
24.8 µM and 45.6 µM	≤ 0.137 µM and 0.0873 µM						O=Cc1ccc(Oc2cc3c(cc2Cl)C=C(C(=O)O)C(C(F)(F)F)O3)c(Br)c1 (stereo not shown)
> 100 µM	> 100 µM	1.64 µM					O=C(O)C1=Cc2cc(Cl)c(Oc3ccc(-c4ccc(Cl)cc4)cc3)cc2OC1C(F)(F)F (stereo not shown)
21.8 µM	4.49 µM	0.22 µM					O=C(O)C1=Cc2cc(Cl)c(Oc3ccc(-c4ccccc4)cc3Cl)cc2OC1C(F)(F)F (stereo not shown)
2.1 µM	< 0.137 µM	< 0.137 µM					Cc1cc(I)ccc1Oc1cc2c(cc1Cl)C=C(C(=O)O)C(C(F)(F)F)O2 (stereo not shown)
			4.17 µM	0.0185 µM	1.21 µM	0.454 µM	Cc1c(Cl)ccc(Oc2cc3c(cc2Cl)C=C(C(=O)O)C(C(F)(F)F)O3)c1Cl (stereo not shown)
			26.3 µM	5 µM	12.2 µM	28.3 µM	O=C(O)C1=Cc2cc(Cl)cc(C#Cc3ccc(Br)cc3F)c2OC1C(F)(F)F (stereo not shown)
